Literature values, collected in patent publication US20050244485A1, “Transdermal administration of hydrophilic drugs using a basic permeation enhancer composition” (priority 2003, published 2005).

Conditions: 0.1M aqueous solution, 25° C.; cited from earlier work

In the case of `OCCN(CCO)CCO`, the “pH of 0.1 M aqueous sol'n” value is listed as 10.38.
